Biological target: recombinant human SYK (GST-hSYK fusion protein) (Homo sapiens, UniProt P43405)
Settings: tested form: formate

## COc1nc(Nc2cc(C)cc(-c3cnc(C4(O)CCC(C(=O)O)C(C)C4)s3)c2)ncc1F (single isomer, unassigned)
  IC50: < 100 nM

From patent publication US8551984B2, “Aminopyrimidines as SYK inhibitors” (Merck Sharp & Dohme Corp., priority 2009, dated 2013)
